A value given as a limit tells only on which side of the number the result lay.

Chains of the proteins cited; added tags and fusions are not shown.
UniProt P01116, whole entry G12D: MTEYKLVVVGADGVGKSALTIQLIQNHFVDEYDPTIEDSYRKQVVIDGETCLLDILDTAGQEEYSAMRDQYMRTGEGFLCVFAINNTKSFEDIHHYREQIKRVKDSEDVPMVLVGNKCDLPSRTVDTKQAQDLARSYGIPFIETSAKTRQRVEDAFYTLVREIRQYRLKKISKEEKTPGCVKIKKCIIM

This assay addresses Ba/F3_KRAS^G12D cells (Homo sapiens, UniProt P01116, G12D, cells depend on it). Kind of assay: Ba/F3 KRAS G12D cell proliferation assay (CellTiter-Glo). As to conditions: read-out: BaF3_KRAS^G12D IC50, treated for 3 days, cell-titer Glo, cell growth inhibition, tested form: 3TFA. (In general: Cellular ATP, detected with luciferase, serves as a proxy for viable cell number.)

For the compound `C#Cc1c(F)ccc2cc(O)cc(-c3c(C#N)cc4c(N5CC6CCC(C5)N6)nc(OC[C@@]56CCCN5C[C@H](F)C6)nc4c3F)c12` (single isomer, unassigned), the GI50 was less than 0.5 µM.

Values taken from patent US20230242544A1, “QUINAZOLINE COMPOUNDS, PREPARATION METHODS AND USES THEREOF” (INVENTISBIO CO., LTD., priority 2020, published 2023).
